System: 5-HT2A receptors
Assay: Antagonism of 5-HT cumulative contraction of rabbit aorta, pA2

FC(F)(F)c1cccc(N2CCN(CCCCn3cnc4ccccc43)CC2)c1 [Compound II-36, 1-(4-(4-(3-trifluoromethylphenyl)piperazin-1-yl)butyl)-1H-benzimidazole]
PA2 value against 5-HT contraction: 5.71±0.08

— patent publication US9802929B2, “Benzo five-membered nitrogen heterocyclic piperidine or piperazine derivatives and preparation methods and pharmaceutical compositions thereof” (Shenyang Haiwang Biotechnology Co., Ltd., priority 2012, dated 2017)
